The text below walks through data of patent US20250332276A1, “Inhibitors of Molluscum Contagiosum Infection and Methods Using the Same” (priority 2022, published 2025).

The nature of this series: 3-Day Cell Viability Assay (cytotoxicity). The settings on record: read-out: CC50 (cytotoxicity).

The CC50 is the concentration that lowers cell viability or growth by half. Regarding `CCC(C(=O)Nc1sc(C(N)=O)c(C)c1C(=O)OC)c1ccc(F)cc1` (stereo not shown), the CC50 amounted to 103 µM.
